A selection: hits, their analogues and other compounds. The true share with any hit is near 4.2%.
HDAC3 inhib = inhibitors of human histone deacetylase 3; 0.15% of 320,000 active; inhibition, % at 8.3 µM; recombinant HDAC3, fluorogenic peptide/trypsin coupled, fluorescence; O15379; AID 2718; in the data active = inhibition above about 26%, passing the limit was not always enough
Yeast UUG start = modulators of start codon recognition fidelity in yeast; AID 602363; activity score, % at 18.7 µM; S. cerevisiae UUG-firefly luciferase reporter, luminescence/redox ratio; 0.13% of 350,000 active;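 active = replicate mean at a twofold rise or more, about +100% in these data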;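 note: firefly luciferase made from a UUG start codon reports start codon fidelity; reporter light over untreated wells divided by growth signal over untreated wells; some hits fall short of that in this replicate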
ALR inh = inhibitors of human ALR sulfhydryl oxidase, primary screen, biochemical, H2O2 detection, HRP-luminol luminescence, single point; FAD-linked sulfhydryl oxidase ALR (Homo sapiens), P55789; purified ALR, DTT oxidation; inhibition, % (test concentration not listed); 290,000 tested, 3.8% active; AID 485317, 2010;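 active = mean and each replicate at 75% or more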;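 note: stock transfer was 7.5 nL into about 7.5 µL; 0% = neutral wells and 100% = wells with inactivated enzyme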
MC4R antag cAMP = human MC4R antagonism in cAMP assay; P32245; MC4R-expressing cells, MTII-stimulated cAMP, LANCE TR-FRET; inhibition, % at 6.5 µM; 0.48% of 360,000 active;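 active = inhibition above its plate's cutoff, the mean of tested wells on that plate plus 3 SD, cut at about 29% in these data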;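 note: 0% = Melanotan II alone and 100% = Melanotan II plus saturating MCL0020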
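System – human MC4R-expressing U2OS cells · Also added – Melanotan II · Dosing – one concentration, 6.5 µM nominal · Timing – 30-min compound, 1-h challenge, 1-h detection, room temperature · Measured by – Eu-cAMP/anti-cAMP TR-FRET, emission 671 nm · Replicates – singlicate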
NALP1 yeast inh = inhibitors of NALP1 inflammasome in yeast | S. cerevisiae NALP1/ASC/caspase-1 growth, X-gal OD620, 72 h | inhibition, % at 10 µM | 0.61% of 280,000 active | AID 2071; in the data active = inhibition mostly above about 24%, no sharp cut-off; inactive = mostly below about 32%
MC4R ag barr = agonists of human melanocortin 4 receptor (MC4R) beta-arrestin. P32245. activation, % at 8.9 µM. 0.98% of 360,000 active. U2OS MC4R beta-arrestin complementation, luminescence; percent of melanotan II response, DMSO zero. AID 540308;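 active = activation above a per-plate cutoff, the mean activation of sample wells on that plate plus 3 SD, cut at about 8% in these data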
U2OS cAMP counter = counter-screen for MC4R antagonists: nonselective cAMP signaling inhibitors. AID 602193. 26% of 1,600 active. shares compounds with MC4R antag cAMP. inhibition, % at 6.5 µM. parental U2OS, forskolin cAMP, LANCE TR-FRET;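 active = mean inhibition over triplicates above the low-control well mean plus 3 SD, set per campaign, cut at about 13% in these data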;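 note: signal is single emission at 671 nm which falls as cellular cAMP rises; 0% = forskolin-stimulated wells and 100% = buffer without forskolin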
MC4R antag conf = human MC4R cAMP antagonism confirmation; MC4R-expressing cells, MTII-stimulated cAMP, TR-FRET; shares compounds with MC4R antag cAMP; 27% of 1,600 active; AID 602195; inhibition, % at 6.5 µM; in the data active = inhibition above about 29%;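 note: 0% = agonist stimulated wells alone and 100% = agonist stimulated wells plus saturating reference antagonist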
* hit, by the source's call.

COc1cc(NC(=O)C2=C(N3CCOCC3)/C(=C/c3ccc(Cl)cc3)CC2)cc(OC)c1OC was read as HDAC3 inhib -3.7, ALR inh -1.0, MC4R antag cAMP 28.7*, NALP1 yeast inh 28.5, MC4R ag barr 0.5, U2OS cAMP counter -0.2 and MC4R antag conf 5.3.
Screening C[C@@H]1CN([C@H](C)CO)C(=O)Cc2cc(NC(=O)Cn3cnnn3)ccc2O[C@@H]1CN(C)C(=O)NC1CCCCC1 returned Yeast UUG start -3.8.
O=C(O)c1cc(-c2cccnc2)nc2ccc(Br)cc12 was read as HDAC3 inhib 1.4, Yeast UUG start -2.4, ALR inh 1.9, MC4R antag cAMP 48.6*, NALP1 yeast inh -0.5, MC4R ag barr -0.9, U2OS cAMP counter 41.6* and MC4R antag conf 67.6*.
O=C(O)c1cc(-c2ccc3c(c2)OCO3)nc2ccc(Br)cc12 was read as HDAC3 inhib -1.6, Yeast UUG start 0.9, ALR inh 28.6, MC4R antag cAMP 37.0*, NALP1 yeast inh 5.7, MC4R ag barr -1.7, U2OS cAMP counter 12.0 and MC4R antag conf 29.6*.
CCN1CCN(C(=O)c2cc(-c3cccnc3)nc3ccc(Br)cc23)CC1 was read as HDAC3 inhib -0.9, Yeast UUG start -5.2, ALR inh 26.6, MC4R antag cAMP 6.2, NALP1 yeast inh -4.6 and MC4R ag barr -1.7.
`O=C(O)c1cc(-c2cccs2)nc2ccc(Br)cc12` gave HDAC3 inhib 10.1, ALR inh 0.9, MC4R antag cAMP 110.6*, NALP1 yeast inh 6.0, MC4R ag barr -1.6, U2OS cAMP counter 98.2* and MC4R antag conf 152.6*.
CCOC(=O)C(C)(C)N(Cc1ccc(C)cc1)S(=O)(=O)c1ccc(Cl)c([N+](=O)[O-])c1 was read as HDAC3 inhib 4.5, ALR inh -5.8, MC4R antag cAMP 31.5*, NALP1 yeast inh 35.6, MC4R ag barr 2.4, U2OS cAMP counter 19.9* and MC4R antag conf 52.0*.
Screening CCOC(=O)C(C)(C)NS(=O)(=O)c1ccc(Cl)c([N+](=O)[O-])c1 returned HDAC3 inhib 1.1, Yeast UUG start 1.1, MC4R antag cAMP 39.8*, NALP1 yeast inh 18.7, MC4R ag barr -1.8, U2OS cAMP counter 20.8* and MC4R antag conf 35.0*.
CCOC(=O)C(C)(C)N(Cc1ccc(Cl)cc1)S(=O)(=O)c1ccc(Cl)c([N+](=O)[O-])c1 was read as HDAC3 inhib 2.3, ALR inh -5.4 and NALP1 yeast inh 35.2.
Screening Cc1ccc(S(=O)(=O)N2C[C@H](O)COC[C@@H]3O[C@H](CC(=O)NCC4CCCCC4)CC[C@H]32)cc1 returned Yeast UUG start 17.5.
`COc1ccc(N2C(=O)C3CC(C)=C(C)CC3C2=O)c(OC)c1` (stereo not drawn) gave HDAC3 inhib -3.9, Yeast UUG start -5.3, ALR inh -2.4, MC4R antag cAMP 1.5, NALP1 yeast inh -1.1 and MC4R ag barr 1.7.
Screening COc1cc(N2C(=O)C=CC2=O)ccc1N1C(=O)C=CC1=O returned MC4R antag cAMP 102.8*, MC4R ag barr -4.0, U2OS cAMP counter 62.2* and MC4R antag conf 79.3*.
For COC(=O)c1ccc(/C=C2\CCn3c2nc2cc(C(=O)O)ccc2c3=O)cc1 the results were HDAC3 inhib -29.6, ALR inh -5.5, MC4R antag cAMP 12.5, NALP1 yeast inh -43.9 and MC4R ag barr 0.2.
Screening CC(C)CCOc1ccc(/C=C2\CCn3c2nc2cc(C(=O)O)ccc2c3=O)cc1 returned MC4R antag cAMP 32.1*, NALP1 yeast inh 2.4, MC4R ag barr 1.8, U2OS cAMP counter -0.1 and MC4R antag conf -8.4.
For O=C1OCCC1Sc1nc2ccccc2c(=O)n1Cc1ccc(F)cc1 (stereo not drawn) the results were HDAC3 inhib 3.3, ALR inh -1.5, MC4R antag cAMP 3.5, NALP1 yeast inh 1.7 and MC4R ag barr -0.4.

Not a retest: entries from further up.
Screening CC(C)CCOc1ccc(/C=C2\CCn3c2nc2cc(C(=O)O)ccc2c3=O)cc1 returned MC4R antag cAMP 32.1*, NALP1 yeast inh 2.4, MC4R ag barr 1.8, U2OS cAMP counter -0.1 and MC4R antag conf -8.4.
For O=C1OCCC1Sc1nc2ccccc2c(=O)n1Cc1ccc(F)cc1 (stereo not drawn) the results were HDAC3 inhib 3.3, ALR inh -1.5, MC4R antag cAMP 3.5, NALP1 yeast inh 1.7 and MC4R ag barr -0.4.
